Reference: ChEMBL document CHEMBL1151564, “Arylacetamide kappa-selective opioid ligands” (Bioorg Med Chem Lett, 1997)
pKi: −log10 of the molar value.

Sequences of proteins named here, by UniProt entry; tags and fusion partners are left off. A change or cut given only in a name is not applied to a line headed by its entry.
UniProt P41144: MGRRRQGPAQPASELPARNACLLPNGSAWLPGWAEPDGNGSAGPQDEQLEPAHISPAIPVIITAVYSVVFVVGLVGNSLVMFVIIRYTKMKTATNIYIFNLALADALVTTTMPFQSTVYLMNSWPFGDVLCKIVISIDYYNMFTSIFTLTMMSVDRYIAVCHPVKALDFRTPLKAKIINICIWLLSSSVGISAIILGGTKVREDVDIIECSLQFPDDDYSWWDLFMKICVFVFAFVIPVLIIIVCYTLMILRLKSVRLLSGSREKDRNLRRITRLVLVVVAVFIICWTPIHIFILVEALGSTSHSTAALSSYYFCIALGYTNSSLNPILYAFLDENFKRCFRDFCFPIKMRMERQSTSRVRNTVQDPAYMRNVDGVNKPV
UniProt P97266, whole entry, looked up: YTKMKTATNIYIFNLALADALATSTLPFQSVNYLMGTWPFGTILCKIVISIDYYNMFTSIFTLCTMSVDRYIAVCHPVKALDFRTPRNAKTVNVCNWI

Experiments:
[1] = biological target: Kappa-type opioid receptor (Cavia porcellus, UniProt P41144); test: Compound was evaluated for the inhibition of Opioid receptor kappa1 binding to guinea pig brain membranes, using 1 nM [3H]- U69,593 as radioligand
[2] = biological target: Mu-type opioid receptor (Cavia porcellus, UniProt P97266); test: Compound was evaluated for the inhibition of Opioid receptor mu 1 binding to guinea pig brain membranes, using [3H]- DAMGO as radioligand

SMILES | pKi [1] | pKi [2]
CN(C(=O)Cc1ccc(Cl)c(Cl)c1)[C@@H](CN1CCCC1)c1cccc(N)c1 | 7.83 | 5.86
CN(C(=O)Cc1ccc(Cl)c(Cl)c1)[C@H](CN1CCCC1)c1cccc(N)c1 | 10.23 | 8.12
